How the values were obtained:
[1] = molecular target: CX3CR1 nucleosome containing ^3AH2A (human) (UniProt P04908); experiment: native gel or EMSA; 0.5 μM nucleosome mixed with purified protein at different concentrations, 30 min, room temperature, 20 mM HEPES pH 7.3, 150 mM NaCl, 0.5 mM TCEP; 4% or 5% acrylamide gel in 0.2 x TBE at 4 °C; apparent Kd from a fit to the Hill equation
[2] = molecular target: CX3CR1 nucleosome (human core histones, wild type) (human) (UniProt P04908); experiment: as above
PU.1 full-length (mouse) = PU.1 full-length (mouse) (UniProt P17433); experiment: EMSA; settings: EMSA: 20 mM HEPES pH 7.3, 150 mM NaCl, 0.5 mM TCEP, 30 min room temperature, 0.5 uM nucleosome or DNA, FRET: 20 mM HEPES pH 7.1, 100 mM NaCl

“PU.1 ETS (^ETSPU.1, residue 165–272) (from UniProt P17433 165-272) (domain or fragment)” showed a fold reduction of the binding affinity against ^ETSPU.1 on the nucleosome with wild-type H2A [1] of 3 fold.
Work on “PU.1, full-length, wild type (from UniProt P17433 1-272) (natural protein)” yielded a Kd [2] of 650 nM.
Work on “TAGGTGCAGGGCCTCTCGGCTGCTGATCTTCAGCTGGTTGCTGAGAGTTGCAGCATTGCTGAGTCTTAGCAATGGATACTTCCCGATTCCCCTCACAAAAATAGGTCAGTCTGTCTGGCTAGTTCTGTACTTGCAGACACAGGGCATGTGGGGTTCCTATTT (double strand) [162 bp CX3CR1 nucleosome]” yielded a Kd (PU.1 full-length (mouse)) of 650 nM.

From article doi:10.1101/2023.08.25.554718
